Measured values: patent US20060234327A1, “Methods for identifying enzyme inhibitors and protein kinases” (priority 2003, published 2006)

Molecular target: T1, ALK5 (Homo sapiens, UniProt P36897)
T1 construct: recombinantly expressed and purified kinase domain of the transforming growth factor (TGF)-β type I receptor; made in house; host or cells: baculovirus expression system
T1 sequence (P36897 205-495 limits assumed): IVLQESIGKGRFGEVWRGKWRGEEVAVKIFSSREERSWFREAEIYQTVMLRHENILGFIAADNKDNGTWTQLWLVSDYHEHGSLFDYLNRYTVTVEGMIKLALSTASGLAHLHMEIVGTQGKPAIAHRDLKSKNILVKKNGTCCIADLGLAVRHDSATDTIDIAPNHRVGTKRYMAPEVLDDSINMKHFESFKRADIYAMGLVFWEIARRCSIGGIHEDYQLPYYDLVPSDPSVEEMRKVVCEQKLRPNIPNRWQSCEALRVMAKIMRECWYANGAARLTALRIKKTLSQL
Experiment: Biotin-FSBA binding and competition detected by Western blot (avidin-HRP)
Details: biotin-FSBA 20 μM

CN[C@@H]1C[C@H]2O[C@@](C)([C@@H]1OC)n1c3ccccc3c3c4c(c5c6ccccc6n2c5c31)C(=O)NC4 [staurosporine]
Staurosporine concentration at which biotin-FSBA/ALK5 bands were no longer visible: ≥ 5.0 µM
